Values of other authors as cited in patent US20250160636A1, “Mitigating Ocular Toxicity” (GlaxoSmithKline Intellectual Property Development Limited, priority 2022, published 2025).

Conditions: full list, wrapped over lines: blepharitis, conjunctivitis, keratitis/ulcerative keratitis with decreased visual acuity, and cheilitis

Cetuximab
Label mentions existence of (ocular toxicity issues): Label mentions existence of blepharitis, conjunctivitis, keratitis/ulcerative
